{"source": "ChEMBL document CHEMBL2311513", "about": "“Fragment growing and linking lead to novel nanomolar lactate dehydrogenase inhibitors” (J Med Chem, 2013)", "molecular_target": "L-lactate dehydrogenase A chain (Homo sapiens, UniProt P00338)", "assay": "Inhibition of human LDH-A", "data": [{"smiles": "NC(=O)C(=O)O", "note": "[OXAMATE]", "values": [{"measurement": "Ki", "result": 26, "unit": "µM"}]}]}
